Measured values from PubChem BioAssay AID1347076 (National Center for Advancing Translational Sciences (NCATS), 2019).
Where “and” joins values, the source holds several entries; their conditions need not be identical. Equal entries are not always repeated. This is a selection; strong and weak results do not stand in their true shares. Some tests of the compounds listed are not included; inactive here does not mean inactive elsewhere. Results filed as inconclusive are left out. Calls of active or inactive are those of the source. The call rests on the fitted dose curve; in most records, active means well fitted cell-killing curve with a large enough effect; inconclusive means small, poorly fitted or top-dose-only effect, or effect the other way; inactive means flat fitted curve, though single readings scatter.

assay: qHTS assay for MDR1-selective chemotherapeutics: Primary screen using the drug-selected MDR subline cells KB-V1; conditions: KB-V1 MDR cells viability, CellTiter-Glo, 72 h; at 46.1 µM (top of the series); further: nearly all actives have a fitted effect of over 60% in size
Excerpt: A prime difficulty in effectively treating cancer is the development of cellular resistance to multiple structurally unrelated anticancer drugs, a phenomenon known as multidrug resistance (MDR). […] Numerous strategies to overcome P-gp-mediated MDR have been explored, including the design of drugs that evade recognition and efflux, and development of inhibitors to block efflux and restore drug accumulation. […] An alternative approach is to exploit resistance by identifying drugs that target MDR cells over the non-resistant parental cells from which they were selected. […] The development of MDR1-selective agents represents a new strategy for resolving multidrug resistance, as it remains a long-standing clinical challenge for cancer chemotherapy.
Our goal is to identify compounds that selectively kill P-gp-expressing MDR cells. We will identify MDR1-selective compounds by comparing toxicity of compounds in the screening library against parental, drug-naive (KB-3-1) adenocarcinoma cells as well as their drug-selected MDR sub-line (KB-V1). The differential toxicity of compounds against these two cell lines will be used to identify MDR1-selective compounds, whose cytotoxicity is potentiated, rather than diminished, by P-gp expression. This assay will be utilized to conduct a quantitative high-throughput screen (qHTS) in collaboration with the NIH Chemical Genomics Center to identify selective agents, and probe hits arising from the screen will be validated using secondary assays and characterized through a well-established follow-up research program. This screen was run against the entire NCGC library collection of about 400,000 compounds.
NIH Molecular Libraries Probe Production Network [MLPCN]
NIH Chemical Genomics Center [NCGC]
PI: Michael Gottesman, National Cancer Institute, NIH
Briefly, 5 microL of media containing either KB-V1 cells (columns 1-2, 4-48) are dispensed into Greiner white, treated solid-bottom 1536-well assay plates (media-only control is added to column 3). Compounds are then transferred via Kalypsys pin tool equipped with 1536-pin array (10 nL slotted pins, V&P Scientific, San Diego, CA). Following addition of compound, the plates are incubated at 37 degrees C for 72 hours. CellTiter-Glo (2.5 µL/well) is then added, and the plates are read in a ViewLux reader (Perkin-Elmer, clear luminescence filter, 1 second exposure, 1x binning) following a 10 minute incubation. All cells are dispensed in DMEM phenol-red free media containing 10% FBS.
Library plates were screened starting from the lowest and proceeding to the highest concentration. Vehicle-only plates, with DMSO being pin-transferred to columns 5-48, will be inserted uniformly at the beginning and the end of each library in order to monitor and record any shifts in the background, which can be affected by reagent dispensers or loss in enzyme activity over time. Screening data will be corrected, normalized, and concentration-effect relationships will be derived by using publicly-available NCGC, NCATS curve fitting algorithms (http://ncgc.nih.gov/pub/openhts).
On the % scale 0 is the no-effect control and ±100 the full control effect.

| Compound | activity change, negative = cytotoxicity |
| --- | --- |
| CN(C)c1cccc(C(=O)NCC2(N(C)C)CCCCC2)c1 | inactive: 10.5% |
| O=C(OCCN1CCCC1)C(O)(c1ccccc1)c1ccccc1 | inactive: 5.64% |
| CC(C)Oc1ccc(C(=O)NCC2(N(C)C)CCCCC2)cc1 | inactive: 7.34% and inactive: 12.4% |
| COc1ccc(Br)c(C(=O)NCC2(N3CCCCC3)CCCCC2)c1 | inactive: -2.37% |
| Cc1cccc(C(=O)NCC2(N(C)C)CCCCC2)c1 | inactive: 0% |
| COc1cc(C(=O)NCC2(N(C)C)CCCCC2)cc(OC)c1OC | inactive: -0.874% |
| C=C(C)C#CC(O)(C(=O)OC1CCN(C)CC1)c1ccccc1 (stereo unspecified) | inactive: 0.227% |
| CC(C)COc1ccc(C(=O)NCC2(N(C)C)CCCCC2)cc1 | inactive: -21.1% |
| O=C(OC1CN2CCC1CC2)C(CO)(c1ccccc1)c1ccccc1 (stereo unspecified) | inactive: -3.33% |
| COc1cccc(C(=O)NCC2(N3CCOCC3)CCCCC2)c1 | inactive: -17.3% |
| O=C(NCC1(N2CCCCC2)CCCCC1)c1cccc(Cl)c1 | inactive: 2.86% |
| COc1ccc(C(=O)NCC2(N(C)C)CCCCC2)cc1Cl | inactive: 24.5% |
| COc1ccc(Cl)cc1C(=O)NCC1(N(C)C)CCCCC1 | inactive: -1.37% |
| COc1cccc(C(=O)NCC2(N3CCCCC3)CCCCC2)c1 | inactive: -2.56% |
| COc1cc(C(=O)NCC2(N(C)C)CCCCC2)c([N+](=O)[O-])cc1OC | inactive: 27.9% |
| CN(C)C1(CNC(=O)c2ccc(Br)cc2)CCCCC1 | inactive: 0% |

| Compound | activity change, negative = cytotoxicity |
| --- | --- |
| O=C(CBr)c1ccc(Cl)cc1 | inactive: 13.6% |
| CCOc1cccc(C(=O)NCC2(N(C)C)CCCCC2)c1 | inactive: -11.9% |
| COc1ccc(C(=O)NCC2(N(C)C)CCCCC2)cc1 | inactive: -1.22% |
| O=C(NCC1(N2CCCCC2)CCCCC1)c1cc(F)c(F)cc1Cl | inactive: -8.22% |
| C=CCN1CCN(CCOC(=O)C(O)(c2ccccc2)c2ccccc2)CC1 | inactive: -12.1% |
| CN(C)C1CCCC1OC(=O)C(O)(c1ccccc1)c1ccccc1 (stereo unspecified) | inactive: 3.21% |
| CN(C)c1ccc(C(=O)NCC2(N(C)C)CCCCC2)cc1 | inactive: 15.9% |
| CN(C)C1(CNC(=O)c2ccccc2[N+](=O)[O-])CCCCC1 | inactive: -4.24% |
| Cc1ccccc1C(=O)NCC1(N2CCCCC2)CCCCC1 | inactive: -6.81% |
| CN(C)C1(CNC(=O)c2ccccc2F)CCCCC1 | inactive: -3.86% |
| Cc1ccc(C(=O)NCC2(N3CCCCC3)CCCCC2)cc1 | inactive: -0.999% |
| CC(C)N1C(=O)CC2(CCN(CCOC(=O)C(O)(c3ccccc3)c3ccccc3)CC2)C1=O | inactive: 4.7% |
| CCN(CC)CC(C)C(C)OC(=O)C(O)(c1ccccc1)c1ccccc1 (stereo unspecified) | inactive: -3.1% |
| CN(C)C1(CNC(=O)c2cccc(Cl)c2)CCCCC1 | inactive: -13.9% |
| O=C(NCC1(N2CCCCC2)CCCCC1)c1cc([N+](=O)[O-])ccc1Cl | inactive: -0.892% |
